Reference: patent US20150037269A1, “TOPICAL COMPOSITIONS FOR TREATMENT OF EXCESSIVE SWEATING AND METHODS OF USE THEREOF” (GlaxoSmithKline Intellectual Property Development Limited, priority 2013, published 2015)

Experiment: Clinical study: single radiolabelled topical dose to axilla or palm of healthy male subjects
Format: in vivo, human
Conditions: average; range 2- to 33.6-fold
Procedure: Up to four cohorts were to be enrolled (Cohort A: unoccluded axilla; Cohort B: occluded axilla; Cohort C: unoccluded palm; Cohort D: occluded palm). Six subjects were to be dosed in each cohort and complete the study procedures.
On the day of dosing, subjects will receive the study drug applied to the axilla or palm. Each subject will only receive a single dose of study drug which will be applied to the test site and remain on the application site for 8 hours. Serial blood samples will be collected throughout treatment. An interim analysis using simulations will be conducted after each cohort to determine the likelihood of exceeding the safety cover for Cmax or AUC and the likelihood of obtaining quantifiable concentrations sufficient to determine the half-life in the subsequent cohorts.

ratio of Cmax in occluded axilla to unoccluded axilla: 9.1 fold
SMILES: OC(c1ccccc1)(c1ccccc1)C12CC[N+](CCOCc3ccccc3)(CC1)CC2 [umeclidinium, 4-[hydroxy(diphenyl)methyl]-1-{2-[(phenylmethyl)oxy]ethyl}-1-azoniabicyclo[2.2.2]octane]
